Data taken from patent US20110280813A1, “NEURAMINIDASE INHIBITORS AND USES THEREOF” (priority 2008, published 2011).

Amino acid sequences for entries named in this document (tags omitted). Residues count along the entry.
UniProt P62575, 116-1035: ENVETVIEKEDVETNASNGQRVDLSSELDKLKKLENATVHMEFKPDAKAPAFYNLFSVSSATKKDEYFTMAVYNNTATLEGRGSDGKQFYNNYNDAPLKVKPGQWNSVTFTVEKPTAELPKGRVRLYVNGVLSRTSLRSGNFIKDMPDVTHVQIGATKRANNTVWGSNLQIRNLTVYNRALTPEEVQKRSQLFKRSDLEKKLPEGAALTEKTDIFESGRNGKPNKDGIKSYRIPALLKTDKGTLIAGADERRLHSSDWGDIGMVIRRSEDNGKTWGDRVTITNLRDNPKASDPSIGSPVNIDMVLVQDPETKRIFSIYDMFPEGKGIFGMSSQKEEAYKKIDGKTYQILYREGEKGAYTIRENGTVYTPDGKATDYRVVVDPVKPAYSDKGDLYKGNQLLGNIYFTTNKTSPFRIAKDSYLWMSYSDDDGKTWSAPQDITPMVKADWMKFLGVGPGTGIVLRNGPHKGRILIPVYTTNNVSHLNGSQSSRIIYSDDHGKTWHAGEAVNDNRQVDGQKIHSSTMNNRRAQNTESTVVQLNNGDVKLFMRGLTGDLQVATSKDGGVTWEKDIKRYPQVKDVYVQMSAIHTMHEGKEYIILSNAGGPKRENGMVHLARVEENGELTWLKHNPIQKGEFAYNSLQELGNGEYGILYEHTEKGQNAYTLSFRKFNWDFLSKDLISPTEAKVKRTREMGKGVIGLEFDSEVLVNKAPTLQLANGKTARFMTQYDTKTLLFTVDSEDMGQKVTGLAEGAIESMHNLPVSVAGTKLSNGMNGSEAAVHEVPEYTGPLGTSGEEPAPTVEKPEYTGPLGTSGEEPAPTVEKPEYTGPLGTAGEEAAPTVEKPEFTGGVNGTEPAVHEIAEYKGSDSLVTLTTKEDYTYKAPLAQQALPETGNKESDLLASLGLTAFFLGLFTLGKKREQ

Target: T1, S. pneumoniae neuraminidase (NanA) (Streptococcus pneumoniae, UniProt P62575)
T1 construct: residues 116-1035 of S. pneumoniae D39 sialidase A precursor (NanA); made in house; host or cells: E. coli BL21(DE3), pET28a
Assay: Neuraminidase assay with fluorogenic substrate MNN, NanA
Type: biochemical
Experimental: Neuraminidase assay. Neuraminidase activity of NanA was detected using the fluorogenic substrate 2′-(4-methylumbelliferyl)-α-D-N-acetylneuraminic acid (MNN, Sigma). Reactions contained 1.5 mM MNN, 1 nM of NanA in 2.5 mM sodium phosphate buffer (pH 5). Reactions were allowed to incubate for 2 h at 37° C. before fluorescence intensity was measured at excitation and emission wavelengths of 360 nm and 465 nm in a Tecan microplate reader (Männedorf, Switzerland). NanPs was assayed as above with […] of enzyme in 7.5 mM sodium chloride and 4 mM calcium chloride. Compounds were screened at a concentration of 100 μM before dose-dependence was established. Compounds were obtained from a variety of sources (Otava, Kyiv, Ukraine; Interbioscreen, Moscow, Russia; Chembridge San Diego, USA; Maybridge, Cornwell, UK; Sigma, St Louis, USA; Princeton, Princeton, USA; Lifechem, Burlington, Canada; Enamine, Kiev, Ukraine). Neuraminidase assays with oseltamivir were performed using the hydrolyzed version of the compound. […]
Neuraminidase assay. […] Neuraminidase activity of NanA was detected using the fluorogenic substrate 2′-(4-methylumbelliferyl)-α-D-N-acetylneuraminic acid (MNN, Sigma). […] Reactions were allowed to incubate for 2 h at 37° C. before fluorescence intensity was measured at excitation and emission wavelengths of 360 nm and 465 nm in a Tecan microplate reader (Männedorf, Switzerland). […]

CC(=O)N[C@H]1[C@H]([C@H](O)[C@H](O)CO)OC(C(=O)O)=C[C@@H]1O [DANA, 2,3-dehydro-2-deoxy-N-acetylneuraminic acid, reference compound]
pIC50 (concentration causing 50% inhibition of NanA activity, sialic acids as competitive inhibitors): 3.70
pIC50 (concentration reducing NanA activity by 50%, Example 3): 3.70

pIC50: −log10 of the molar value.
